{"source": "patent US11358986B2", "about": "“IL-2RBETA binding compounds” (MEDIKINE, INC., priority 2018, dated 2022)", "key": {"IL-2Rβγc subunits": {"system": "IL-2Rβγc subunits", "settings": "DiscoverX product specifications; read-out: IC50 of β-Gal activity; cited from earlier work"}, "[1]": {"system": "resting CD8 T-cells, resting CD4 T-cells, and resting Treg (CD25hi CD127lo) cells", "assay": "pSTAT5 activation in resting human T-cell populations by flow cytometry", "format": "cell-based", "settings": "30 min", "description": "pSTAT5 activation of resting CD8 T-cells, resting CD4 T-cells, and resting Treg (CD25hi CD127lo) cells by the heterodimer of Example 14 was determined using the method described in Example 17.\nThe incubation time was 30 min and pSTAT5 was measured by flow cytometry."}, "[2]": {"system": "melanoma and renal carcinoma", "settings": "patients with melanoma and renal carcinoma; cited from earlier work"}, "NK-92 cells": {"system": "NK-92 cells", "assay": "STAT5 phosphorylation in NK-92 cells", "format": "cell-based, human", "settings": "Western Blot, Anti-hIL-2 IgG added to all samples", "description": "NK-92 cells were seeded in a 24-well plate at 4×10^5 cells, in 1 mL starvation medium (SM), and incubated overnight at 37° C., 5% CO2. The starvation medium contained RPMI 1640+20% FBS+2 mM L-glutamine+1 mM NaPyr+10 mM HEPES+0.1 mM BME (no rhIL-2 supplement).\nTreatment mixtures were of 1 pg/mL Anti-hIL-2 neutralizing antibody (0.2 mg/mL stock) or goat IgG control (1 mg/mL stock) were prepared.\nThe treatment mixtures and the antibody mix were added to the cells for 30 min at 37° C., 5% CO2. Each sample was then transferred to a 1.5 mL microfuge tube and spun down at 1,500 RPM for 5 minutes. The cells were washed in 1 mL PBS and centrifuged again.\nA phosphatase and protease inhibitor cocktail (Thermo #78442) were added to mPER buffer at a 1:100 dilution. After the cells were pelleted, 50 μL of mPER buffer was added to each sample and pipetted repeatedly to homogenize.\nThe lysates were centrifuged at 14,000 RPM for 5 min at RT. The supernatants were transferred to clean tubes and stored frozen at −80° C. […]\nThe heterodimer of Example 14 was incubated with NK92 cells and TF-1β cells and the STAT5 phosphorylation measured as a function of concentration using the methods described in Examples 7 and 8."}}, "note": "pIC50: −log10 of the molar value.", "data": [{"substance": "IL-2: Recombinant human Interleukin-2 (IL-2), natural cytokine and positive control", "values": [{"measurement": "pIC50", "setting": "IL-2Rβγc subunits", "value": "~7.59"}, {"measurement": "potency of pSTAT5 activation in the different human T-cell populations", "setting": "[1]", "value": "potency bias for Treg and CD4 T-cells"}, {"measurement": "durable responses in patients", "setting": "[2]", "value": "up to 10%"}, {"measurement": "STAT5 phosphorylation with IL-2 neutralizing antibody added", "setting": "NK-92 cells", "value": "suppressed"}]}]}
